The record followed here is EP2033655B1 (INSERM (Institut National de la Santé et de la Recherche …, dated 2009).

The target of the test is T1, Nucleolin solubilized from THP-1 cell membranes (human).
T1 construct: also called protein doublet at 95 kDa
The test can be described thus: GST pull-down on glutathione-Sepharose, immunoblot with anti-nucleolin MAb.

B1: GST (glutathione S-transferase alone) (other, UniProt P08515 1-218, looked up)
chain: MSPILGYWKIKGLVQPTRLLLEYLEEKYEEHLYERDEGDKWRNKKFELGLEFPNLPYYIDGDVKLTQSMAIIRYIADKHNMLGGCPKERAEISMLEGAVLDIRYGVSRIAYSKDFETLKVDFLSKLPEMLKMFEDRLCHKTYLNGDHVTHPDFMLYDALDVVLYMDPMCLDAFPKLVCFKKRIEAIPQIDKYLKSSKYIAWPLQGWQATFGGGDHPPK
notes: also called GST alone
With B1, the binding result is “no binding”.
